We go through one compound from paper PMC7398144 (The Journal of General Physiology, 2020).

Sequences of proteins named here, by UniProt entry; tags and fusion partners are left off. A change or cut given only in a name is not applied to a line headed by its entry.
UniProt P32240: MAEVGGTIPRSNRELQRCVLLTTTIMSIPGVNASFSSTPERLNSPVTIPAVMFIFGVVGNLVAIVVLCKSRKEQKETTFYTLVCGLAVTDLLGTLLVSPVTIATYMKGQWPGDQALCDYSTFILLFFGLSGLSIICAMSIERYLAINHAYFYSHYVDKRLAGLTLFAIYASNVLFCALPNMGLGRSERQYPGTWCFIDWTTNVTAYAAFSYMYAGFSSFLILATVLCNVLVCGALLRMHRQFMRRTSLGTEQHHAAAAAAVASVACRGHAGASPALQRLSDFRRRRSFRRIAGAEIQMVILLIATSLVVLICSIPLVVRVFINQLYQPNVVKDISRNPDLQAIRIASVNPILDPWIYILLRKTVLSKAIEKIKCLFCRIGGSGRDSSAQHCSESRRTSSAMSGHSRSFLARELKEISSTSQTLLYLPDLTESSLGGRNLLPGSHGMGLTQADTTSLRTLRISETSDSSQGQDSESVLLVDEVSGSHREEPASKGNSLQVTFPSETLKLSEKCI

This assay concerns the target prostaglandin E receptor type 4 (EP4) (Mus musculus, UniProt P32240). The experiment in a line: amiloride-sensitive short-circuit current in mCCDcl1 cells. It is filed as cell-based.

`CCCCC[C@H](O)/C=C/[C@H]1[C@H](O)CC(=O)[C@@H]1C/C=C\CCCC(=O)O` [PGE2]: the EC50 was ~7.1 nM.

As a reminder, the EC50 is the concentration at which the effect is half-maximal. Low values mean higher potency in that assay, high ones lower potency in that assay.
